We go through one substance from article PMC4917254, “Kavain, the Major Constituent of the Anxiolytic Kava Extract, Potentiates GABAA Receptors: Functional Characteristics and Molecular Mechanism” (PLoS ONE, 2016).

By UniProt entry, the sequences of proteins in these tests, tags left out. Residues count along the entry.
UniProt P14867, 28-456: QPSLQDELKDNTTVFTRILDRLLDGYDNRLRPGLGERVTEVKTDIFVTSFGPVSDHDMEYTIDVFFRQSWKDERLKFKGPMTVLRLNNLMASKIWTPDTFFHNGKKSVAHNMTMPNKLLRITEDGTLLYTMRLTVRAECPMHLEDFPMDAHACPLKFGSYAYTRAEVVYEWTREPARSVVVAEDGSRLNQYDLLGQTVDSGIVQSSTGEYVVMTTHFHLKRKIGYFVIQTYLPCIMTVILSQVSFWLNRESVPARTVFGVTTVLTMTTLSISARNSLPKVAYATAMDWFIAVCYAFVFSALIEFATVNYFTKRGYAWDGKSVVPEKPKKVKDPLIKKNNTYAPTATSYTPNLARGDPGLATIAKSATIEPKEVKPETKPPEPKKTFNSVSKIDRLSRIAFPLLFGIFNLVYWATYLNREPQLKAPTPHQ
UniProt P18507, 40-475: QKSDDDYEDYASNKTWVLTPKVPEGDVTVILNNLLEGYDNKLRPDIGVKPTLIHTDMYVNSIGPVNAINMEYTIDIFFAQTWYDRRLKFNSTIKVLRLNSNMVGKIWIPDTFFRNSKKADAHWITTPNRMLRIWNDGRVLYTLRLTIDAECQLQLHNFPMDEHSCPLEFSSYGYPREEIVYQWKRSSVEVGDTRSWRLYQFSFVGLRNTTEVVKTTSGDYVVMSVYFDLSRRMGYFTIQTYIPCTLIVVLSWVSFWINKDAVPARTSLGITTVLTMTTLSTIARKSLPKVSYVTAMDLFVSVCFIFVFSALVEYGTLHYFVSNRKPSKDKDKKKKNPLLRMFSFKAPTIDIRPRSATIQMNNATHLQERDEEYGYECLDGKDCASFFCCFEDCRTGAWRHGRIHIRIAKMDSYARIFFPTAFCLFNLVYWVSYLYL
UniProt P47870, 25-512 limits assumed: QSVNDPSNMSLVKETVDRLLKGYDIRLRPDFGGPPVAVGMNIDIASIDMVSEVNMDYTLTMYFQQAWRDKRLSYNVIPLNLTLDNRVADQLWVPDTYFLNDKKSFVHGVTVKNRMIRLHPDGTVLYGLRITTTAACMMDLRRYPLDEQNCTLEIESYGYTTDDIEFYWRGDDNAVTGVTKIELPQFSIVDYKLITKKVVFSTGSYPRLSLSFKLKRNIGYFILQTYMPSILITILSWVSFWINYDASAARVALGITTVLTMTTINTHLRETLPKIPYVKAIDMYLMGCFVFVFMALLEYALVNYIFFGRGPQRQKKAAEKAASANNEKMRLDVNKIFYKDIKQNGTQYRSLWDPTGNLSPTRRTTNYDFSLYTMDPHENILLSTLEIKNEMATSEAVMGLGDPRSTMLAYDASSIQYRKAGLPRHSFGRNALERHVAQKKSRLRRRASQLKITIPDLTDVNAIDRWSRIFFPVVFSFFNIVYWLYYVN

Read-outs that look alike come from different tables or passages of the source.

For data set [1] the following is noted: cited from earlier work; for brain concentration: mice, i.p.
A short description of data set [2]: Solubility limit of kavain in the recordings. As for the experimental part: Perfusates containing these chemicals were made up fresh before each application. […] All experiments were performed using at least two different batches of oocytes.
Another data set concerns the target T1, α1β2γ2L GABAARs (Homo sapiens, UniProt P14867+P18507+P47870).
T1 construct: expressed in transfected cells; host or cells: Xenopus laevis oocytes injected with mRNA (1:1:3)
Nature of the data set: Two-electrode voltage clamp, recombinant α1β2γ2L GABAARs in Xenopus oocytes. Type of data set: cell-based. Conditions: 300 μM kavain, paired t test p > 0.05. As for the experimental part: The expression and functional characterisation of recombinant GABAARs in Xenopus oocytes were performed as previously described. The subunit mRNA ratios for the expression of αβγ receptors were adjusted according to the β subunit isoform in that when β2-containing receptors were expressed, a 1:1:3 ratio was used, whereas when β1- or β3-containing receptors were expressed, a 10:1:10 ratio was used to minimise the expression of homomeric β1/3 homomeric receptors. To express α4β2δ receptors, a 5:1:5 ratio was used, and the pharmacological characteristics of this receptor were as described in Hartiadi et al. (2016). The injection ratio used for the expression of α1β2 and β2γ2L receptors were 1:1 and 1:3 respectively. Approximately 2 to 10 ng of mRNA mixture was injected into each oocyte. Injected oocytes were stored in ND96 storage solution supplemented with 50 μg/mL gentamycin and tetracycline at 18°C.
Two-electrode voltage clamp recordings were performed on oocytes 2–5 days post-injection at room temperature (20–25°C) using a GeneClamp 500B amplifier (ADInstruments, Sydney, NSW, Australia) or a Warner OC-725C Oocyte Clamp (Warner Instrument Corp, Hamden, CT, USA). […]
Alternatively, the modulatory effect was expressed as the fold of potentiation, as shown in Eq 3.
(In general: Two-electrode voltage clamp is typically applied to oocytes expressing channels or transporters.)

Turning to DL-kavain, the predicted brain concentration in data set [1] (larger doses (300 mg/kg) of kavain, predicted by Davies et al. (1992)) was 300 µM. For the same substance, the brain concentration was 120 µM in data set [1] (44 mg kavain in 120 mg/kg kavalactone mixture) and “up to 100 μM” in data set [1] (100 mg/kg kavain alone, within minutes). This substance registered a highest soluble concentration in data set [2] of 300 µM. The “effect of kavain on EC50 and maximal efficacy of GABA” value at α1β2γ2L GABAARs was “did not affect the EC50 and maximal efficacy of GABA”.
